Patent US20130274212A1, “Sesterterpene Compounds and Use Thereof” (SNU R&DB FOUNDATION, priority 2010, published 2013)

Chains of the proteins cited; added tags and fusions are not shown. Residues count along the entry.
UniProt Q06219, 360-598 limits assumed: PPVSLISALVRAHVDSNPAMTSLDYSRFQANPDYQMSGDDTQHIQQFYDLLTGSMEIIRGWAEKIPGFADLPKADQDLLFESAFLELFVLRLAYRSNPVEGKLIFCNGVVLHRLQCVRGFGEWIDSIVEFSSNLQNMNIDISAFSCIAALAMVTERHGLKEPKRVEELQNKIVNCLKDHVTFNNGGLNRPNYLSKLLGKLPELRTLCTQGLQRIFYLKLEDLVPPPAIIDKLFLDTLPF

Key:
Nurr1 = Nurr1 (Mus musculus, UniProt Q06219); test: GAL-mNurr1 luciferase reporter transfection assay in CV-1 cells; details: read-out: EC50 value on Nurr1, GAL-mNurr1, luciferase corrected by β-galactosidase, 24 hours
Protocol: (§1) Animal cell line CV-1 was used in transfection search. Cells were cultured in DMEM medium within a cell incubator containing 5% carbon dioxide at 37° C. The medium contained 10% fetal bovine serum (FBS), 100 U/ml penicillin, and 100 μg/ml streptomycin. On day 1 of the experiment, CV1 cells were seeded in a 96-well plate at 5,000 cells/well. On day 2, the seeded cells were transfected with plasmid expressing GAL-mNurr1, plasmid expressing luciferase gene, and plasmid expressing β-galactosidase by using a transfection reagent, Superfect (QIAGEN). After 16 hours, the transfected cells were treated with compounds of Chemical Formula I dissolved in dimethylsulfoxide (DMSO) by the concentrations. Cells treated with dimethylsulfoxide having the final concentration of 1% were used as a negative control group. After culturing for 24 hours, the cells were lysed by using a lysis buffer, and luciferin was added thereto to measure the luciferase activity by a luminometer. After addition of an ONPG reagent, β-galactosidase activity was measured by an ELISA reader. The measured luciferase value was corrected by the activity value of β-galactosidase. […] Accordingly, it was verified that the compounds of Chemical Formula I were compounds selective to Nurr1.

LXR = test: GAL-hLXRa or GAL-hLXRB luciferase reporter antagonist assay in CV-1 cells; details: read-out: IC50 value on LXR, LXR agonist T0901517 500 nM
Protocol: as §1, with “expressing GAL-hLXRa or GAL-hLXRB,” for “expressing GAL-mNurr1,”, “expressing β-galactosidase,” for “expressing β-galactosidase”, “the concentrations (here, the final concentration of the LXR agonist, T0901517, was 500 nM).” for “the concentrations.”, “I are antagonist” for “I were”, “to LXR.” for “to Nurr1.”

[1] = tested on: various nuclear receptors (RXR, PPAR, PXR, CAR, ER, LRH-1, GR, NGFI-B, ERR, Rev-erb, GCNF, TR, HNF4, COUP, EAR, VDR, AR, DAX-1, TLX, and VDR); test: Selectivity: antagonistic activity on various other nuclear receptors, same reporter method; details: CV-1 cells, agonists for respective receptors exchanged
Protocol: as §1, with “expressing GAL-hLXRa or GAL-hLXRB,” for “expressing GAL-mNurr1,”, “expressing β-galactosidase,” for “expressing β-galactosidase”, “the concentrations (here, the final concentration of the LXR agonist, T0901517, was 500 nM).” for “the concentrations.”, “I are antagonist” for “I were”, “to LXR.” for “to Nurr1.”

[2] = tested on: C57BL/6J mice fed with high-fat feedstuff; test: Anti-diabetic efficacy in C57BL/6J mice fed with high-fat diet (glucose and insulin tolerance); details: high-fat diet C57BL/6J mice, oral 10 mg/kg/day, last 6 weeks
Protocol: In the present example, in order to verify efficacy to prevent and treat diabetes of the compound of Chemical Formula I (CMDD-X or Compound 7) according to the present invention, BKS.Cg-+Lepr^db/+Lepr^db (db/db) mice as an insulin-independent diabetes animal model and general mice (C57BL/6J) fed with high-fat feedstuff were used. After the disease animal model was orally administered with CMDD-X, the diabetes-related index between the administered group and the control group was measured to verify the efficacy as an agent for preventing and treating diabetes. BKS.Cg-+Lepr^db/+Lepr^db (db/db) mice (male, 7-week old) as type 2 diabetes animal model were purchased and used. The experiment animals were adapted to a housing environment for 1 week while pellet type general diet (lab-chow) was supplied, and then divided into 2 groups of 18 mice each by randomized block design to have similar blood sugar and body weight. […] The other organ tissues were rapidly cooled in the liquid nitrogen immediately after removal thereof, and kept at −70° C. and then analyzed. T-test was conducted with respect to the control group and the administered group, a significant difference of less than 5% (P<0.05) was determined as having have a statistical significance. […]

[3] = tested on: Gyk, LXR, SREBP1c, SCD1, PPARa, UCP gene expression; test: Gene expression analysis (micro-array, Q-RT PCR) in diabetic mice fed with compound
Protocol: Gene expression analysis was conducted to establish the mechanism. The gene analysis was conducted by using micro-array and the Q-RT PCR method. In the mice fed with CMDD-X (or Compound 7), expression of Gyk as a glycolysis biomarker was increased (1.3 times), and expressions of LXR, SREBP1c, and SCD1, which are genes of synthesizing fatty acid by using decomposed glucose, were very increased (FIG. 12). Expressions of PPARa and UCP, which are genes for burning the newly generated fat to release heat, were increased (FIG. 13).

- EC50 (Nurr1): 70 nM
- IC50 (LXR): 20 nM
Compound: CC(C)=CCC/C(C)=C/[C@@H]1CC(C)=C[C@]2(C=C(CO)[C@H]3CC(=O)C(C)=C[C@H]3O2)O1
- antagonistic activity on the other nuclear receptors (selectivity) [1]: never showed antagonistic activity on the other nuclear receptors
- glucose tolerance: blood sugar recovery ([2]; glucose 1 g/kg intraperitoneally): more promptly recovered as compared with the control group
- insulin tolerance test: blood sugar after insulin administration ([2]; insulin 1 unit/kg): significantly decreased for 40 minutes after insulin administration as compared with the control group
- expressions of LXR, SREBP1c, and SCD1 [3]: very increased
- expressions of PPARa and UCP [3]: increased
- expression of Gyk (glycolysis biomarker), increase ([3]; micro-array and Q-RT PCR): 1.3 times
